Source: PubChem BioAssay (ICCB-Longwood Screening Facility, Harvard Medical School)
Only some compounds are listed: those with a hit (about 0.43% of all), similar ones and a draw of the others.
GIV-Gai inh: blocks GIV peptide binding to rat Galpha-i3; Galpha-i3/FITC-GIV peptide fluorescence polarization, 90 min; stronger effect = lower value; scaled: aluminum fluoride 0%, vehicle 100%; P08753; hit rate 0.42% among 210,000; AID 1224905; percent of control (FP), % (test concentration not listed);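 active = replicate mean at 85% of control or lower, very high polarization wells dropped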;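 also: wells of about 15 µL received 100 nL stock; the first replicate is given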
HCMV UL50-53 inh: disrupts HCMV UL50-UL53 complex binding; 190,000 tested, 0.15% active; HTRF UL50-UL53 interaction, normalized percent inhibition; inhibition, % (concentration not given with the values); in the data active = inhibition above about 27%, passing the limit was not always enough
GIV Gai FP conf: confirmation of inhibitors of GIV binding to rat Galpha-i3; shares compounds with GIV-Gai inh; FITC-GIV peptide binding to Galphai3, fluorescence polarization; active compounds read low; fluorescence polarization, mP at 100 µM; 580 tested, 38% active; AID 1259350;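 active = inhibition score of 15 or more, meaning 100 minus mean polarization as percent of control over three replicates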;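 also: lower mP means peptide displaced from Galphai3 so more inhibition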
GIV-Gai AS conf: GIV-Galpha-i3 inhibition, AlphaScreen confirmation; 580 tested, 39% active; AlphaScreen counts at 100 µM; shares compounds with GIV-Gai inh; AID 1259351; AlphaScreen Galphai3-GIV binding, purified proteins, 90 min; active compounds read low;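 active = inhibition score at or above a set limit, where the score is 100 minus the three-replicate mean percent of control signal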
Starred values were filed as active, the others as inactive; . = no result given.

SMILES	GIV-Gai inh	HCMV UL50-53 inh	others
Cn1c(=O)[nH]c2nncnc2c1=O	107	78*
C=CCN1C(=O)NC(=O)/C(=C/c2ccc(-c3cc([N+](=O)[O-])ccc3Cl)o2)C1=O	99	-58
CCOC(=O)c1cc(CC)sc1/N=C/C1C(=O)NC(=S)NC1=O	-36*	.
CCOC(=O)C1C2NC(=S)NC1(C)Oc1ccccc12 (stereo not drawn)	100	-33
CCOC(=O)c1c(CN2CCC(C(=O)OCC)(c3ccccc3)CC2)n(Cc2ccccc2)c2cc(Br)c(O)cc12	106	.
Cc1nc(N2CCN(C)CC2)c(C#N)c(C)c1Br	.	2
C1=C(c2cccnc2)Nc2ncnn2C1c1cccs1 (stereo not drawn)	-74*	-73
CN1CCCN(C(=O)Cc2cccs2)CC1	99	-16
Cn1c(CCCC(=O)O)nc2cc(N(CCCl)CCCl)ccc21	97	67*
O=[N+]([O-])c1ccccc1SC1CC2C(c3ccccc3)Nc3c(Cl)cc(Cl)cc3C2C1Cl (stereo not drawn)	109	.
CC(=O)OC1CCC2C3CCC4CCCC(=O)C4(C)C3CCC12C (stereo not drawn)	102	-11
O=C1NC(=O)C(=Cc2cn(Cc3ccccc3)c3ccccc23)C(=O)N1	-5.9*	.
O=Cc1cn(Cc2ccc(Cl)cc2)c2ccccc12	.	-8
N#CC(C#N)=Cc1ccc(O)cc1	.	-13
CCN(CC)c1ccc(C=C(C#N)C#N)cc1	51*	-56

Overlap with the part before: 2 compounds; new compounds follow.
SMILES	GIV-Gai inh	HCMV UL50-53 inh	others
N#CC(C#N)=Cc1ccc(O)cc1	.	-13
CCN(CC)c1ccc(C=C(C#N)C#N)cc1	51*	-56
CC12C/C(=C(\O)C(F)(F)F)C(=O)C=C1CCC1C2CCC2(C)C(O)CCC12 (stereo not drawn)	101	-15
C[C@]12CC(=CO)C(=O)CC1CCC1C2CC[C@@]2(C)C1CC[C@]2(C)O (stereo partly drawn)	.	-52
N#Cc1c(N)[n+]([O-])c2ccccc2[n+]1[O-]	-31*	-132
CCN(CC)C(=O)c1ccc(NC(=S)NC2CC2)cc1	.	-16
CN1C(=O)C(=Cc2ccccc2OS(=O)(=O)c2ccccc2)C(=O)N(C)C1=O	106	-6
COc1cc(C=C2C(=O)N(C)C(=O)N(C)C2=O)ccc1OS(=O)(=O)c1ccccc1	104	62*
CC(=O)NC(C(=O)NCc1ccc(F)cc1)C(C)C (stereo not drawn)	.	7
Cn1c2cccc(=O)c-2nc2ccccc21	.	-77
CC(=O)N1c2ccc(C)cc2C2CN(C)CCC21 (stereo not drawn)	107	.
Cc1ccc2c(c1)C1CN(C)CCC1N2 (stereo not drawn)	84*	13
CC(c1ccccc1)N1CCNCC1 (stereo not drawn)	104	-17
O=C1NC(=O)C(=Cc2ccccc2OCCOc2ccc([N+](=O)[O-])cc2)C(=O)N1	104	-2
CC(C)(C)c1ccc(OCCOc2ccccc2C=C2C(=O)NC(=O)NC2=O)cc1	91	65*
CC(C(=O)N1CCCc2ccccc21)N1CC=C(c2ccccc2)CC1 (stereo not drawn)	.	-5
COC(=O)CN1C(=O)CN=C(c2ccccc2)c2cc(Br)ccc21	112	.

An excerpt from above in order of SMILES length, highest first:
SMILES	GIV-Gai inh	HCMV UL50-53 inh	others
CCOC(=O)c1c(CN2CCC(C(=O)OCC)(c3ccccc3)CC2)n(Cc2ccccc2)c2cc(Br)c(O)cc12	106	.
COc1cc(C=C2C(=O)N(C)C(=O)N(C)C2=O)ccc1OS(=O)(=O)c1ccccc1	104	62*
CC(C)(C)c1ccc(OCCOc2ccccc2C=C2C(=O)NC(=O)NC2=O)cc1	91	65*
O=C1NC(=O)C(=Cc2cn(Cc3ccccc3)c3ccccc23)C(=O)N1	-5.9*	.

(cont.)
SMILES	GIV-Gai inh	HCMV UL50-53 inh	others
O=C1NC(=O)N(Cc2ccco2)C(=O)/C1=C\c1ccco1	61*	14	GIV Gai FP conf=46*;GIV-Gai AS conf=1412*
C=CCN1C(=O)NC(=O)/C(=C/c2ccco2)C1=O	119	.
COc1ccccc1N1C(=O)NC(=O)/C(=C\C=C\c2ccco2)C1=O	104	.
C=CCN1C(=O)/C(=C/c2ccco2)C(=O)NC1=S	46*	-2	GIV Gai FP conf=52*;GIV-Gai AS conf=936*
CCOC(=O)c1c(CN2CCC(C(=O)OCC)(c3ccccc3)CC2)n(-c2ccccc2)c2cc(Br)c(O)cc12	98	-23
O=C(COc1ccc(Br)cc1)N1CCN(CCc2ccccn2)CC1	99	-5
COc1cc(C2C(C#N)=C(N)Oc3c2c(=O)oc2ccccc32)cc(OC)c1OC(=O)c1ccco1 (stereo not drawn)	109	.
CCOC(=O)C1=C(N)Oc2n[nH]c(-c3cccc([N+](=O)[O-])c3)c2C12C(=O)Nc1ccccc12 (stereo not drawn)	123	.
CCn1cc(C(=O)c2ccccc2)c2ccccc21	100	5
CCn1cc(C=C2C(=O)NC(=O)NC2=O)c2ccccc21	94	-68	GIV Gai FP conf=19*;GIV-Gai AS conf=15779*
CC[C@@]1(O)C(=O)OCc2c1cc1n(c2=O)Cc2cc3ccccc3nc2-1	98	-83
CC[C@@]1(O)C(=O)OCc2c1cc1n(c2=O)Cc2cc3c(O)cccc3nc2-1	77*	-78	GIV Gai FP conf=61*;GIV-Gai AS conf=15350
CC(NCc1ccccn1)C(O)c1ccccc1 (stereo not drawn)	103	.
CCOc1cc(C=C2C(=O)NC(=O)NC2=O)cc(Cl)c1O	72*	11	GIV Gai FP conf=62;GIV-Gai AS conf=5092*
COc1cc(C=C2C(=O)NC(=O)NC2=O)cc(Cl)c1OCCOc1ccccc1	104	13
CN(N=O)c1ccc(O)c(O)c1	37*	102*	GIV Gai FP conf=42*;GIV-Gai AS conf=3178*
COc1cc(CN2CCN(C(=O)Cc3ccccc3)CC2)cc(OC)c1OC	98	-8
COc1cc(C(c2c(C)[nH]n(-c3ccccc3)c2=O)c2c(C)[nH]n(-c3ccccc3)c2=O)cc(OC)c1OC	79*	.	GIV Gai FP conf=53*;GIV-Gai AS conf=19198*
Cc1cccc(N2CCNCC2)c1	106	24
O=C1NC(=S)N(c2ccc(Br)cc2)C(=O)/C1=C\c1ccc(-c2ccccc2C(=O)O)o1	112	-2
CN1C(=O)/C(=C/c2ccc(I)o2)C(=O)NC1=S	46*	-42	GIV Gai FP conf=56*;GIV-Gai AS conf=812*
BrCCN1CCn2c3c(c4cc(C5CCCCC5)ccc42)CCCC31 (stereo not drawn)	98	.
NCCc1cc(O)c(O)cc1O	.	-22
NC(Cc1cc(O)c(O)cc1O)C(=O)O (stereo not drawn)	71*	76*	GIV Gai FP conf=34*;GIV-Gai AS conf=2389*
CC(=O)Nc1ccc(NC(=O)CN2CC=C(c3ccccc3)CC2)cc1	.	12
CCOCCCNC(=O)N1CCC2(C1)C(=O)Nc1ccc(OC)cc12 (stereo not drawn)	107	.
COc1ccc(N2C(=O)/C(=C/c3ccc(-c4cc(C(=O)O)ccc4Cl)o3)C(=O)NC2=S)cc1	108	-1
O=C1NC(=O)C(=Cc2ccc(-c3cc(C(=O)O)ccc3Cl)o2)C(=O)N1	59*	-19	GIV Gai FP conf=60*;GIV-Gai AS conf=4991*
O=C1C=Cc2ccc3c4c(ccc1c24)C=CC3=O	100	-35
CN(C)/N=C/c1ccc(C2(O)C(=O)NC(=O)NC2=O)o1	103	5
